Experimental data reported in ChEMBL document CHEMBL1287807, “Novel TNF-α converting enzyme (TACE) inhibitors as potential treatment for inflammatory diseases” (Bioorg Med Chem Lett, 2010).

Protein sequences, listed by entry. Tags and fused reporters are not part of them. Lines headed by an entry give the natural chain unless they say otherwise; changes in a name come on top.
UniProt P78536: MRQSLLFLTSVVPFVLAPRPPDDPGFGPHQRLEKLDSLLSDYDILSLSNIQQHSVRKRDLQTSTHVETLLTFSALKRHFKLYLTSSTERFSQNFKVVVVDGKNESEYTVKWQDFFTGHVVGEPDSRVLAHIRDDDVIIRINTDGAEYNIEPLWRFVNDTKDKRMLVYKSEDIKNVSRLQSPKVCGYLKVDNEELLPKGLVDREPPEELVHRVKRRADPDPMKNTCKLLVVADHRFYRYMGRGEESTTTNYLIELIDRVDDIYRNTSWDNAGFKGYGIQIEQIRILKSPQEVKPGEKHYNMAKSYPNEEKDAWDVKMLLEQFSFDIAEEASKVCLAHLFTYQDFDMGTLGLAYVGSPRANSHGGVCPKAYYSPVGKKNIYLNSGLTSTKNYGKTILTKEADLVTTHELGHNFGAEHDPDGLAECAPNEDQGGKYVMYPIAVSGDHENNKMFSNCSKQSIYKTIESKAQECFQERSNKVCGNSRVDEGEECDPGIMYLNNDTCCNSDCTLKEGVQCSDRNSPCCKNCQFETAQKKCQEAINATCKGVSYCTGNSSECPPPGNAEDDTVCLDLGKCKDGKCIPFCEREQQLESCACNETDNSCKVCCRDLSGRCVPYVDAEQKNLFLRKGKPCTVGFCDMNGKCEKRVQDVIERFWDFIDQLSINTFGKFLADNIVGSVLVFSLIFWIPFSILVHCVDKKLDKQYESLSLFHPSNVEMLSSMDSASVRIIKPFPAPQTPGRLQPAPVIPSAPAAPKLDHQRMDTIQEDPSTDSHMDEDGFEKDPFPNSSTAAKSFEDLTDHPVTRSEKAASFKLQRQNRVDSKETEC

Molecular target: Disintegrin and metalloproteinase domain-containing protein 17 (Homo sapiens, UniProt P78536)
Assay: Inhibition of TACE

Ki [nM]	Structure (SMILES)
0.61	COc1ccc2c(c1)C(=O)N(C[C@@]1(C#Cc3ccc(N4CCNCC4)cc3)NC(=O)NC1=O)C2
0.42	COc1ccc2c(c1)C(=O)N(C[C@@]1(C#Cc3ccc(CC(N)=O)cc3)NC(=O)NC1=O)C2
